Source: patent US10202344B2, “Aryl substituted indoles and the use thereof” (Purdue Pharma L.P., priority 2010, dated 2019)

Protein sequences, listed by entry. Tags and fused reporters are not part of them. Chains listed by the source or under a name are the forms on record and can include a tag or linker.
UniProt Q15858, other isoform, or with tags, fused parts or gaps: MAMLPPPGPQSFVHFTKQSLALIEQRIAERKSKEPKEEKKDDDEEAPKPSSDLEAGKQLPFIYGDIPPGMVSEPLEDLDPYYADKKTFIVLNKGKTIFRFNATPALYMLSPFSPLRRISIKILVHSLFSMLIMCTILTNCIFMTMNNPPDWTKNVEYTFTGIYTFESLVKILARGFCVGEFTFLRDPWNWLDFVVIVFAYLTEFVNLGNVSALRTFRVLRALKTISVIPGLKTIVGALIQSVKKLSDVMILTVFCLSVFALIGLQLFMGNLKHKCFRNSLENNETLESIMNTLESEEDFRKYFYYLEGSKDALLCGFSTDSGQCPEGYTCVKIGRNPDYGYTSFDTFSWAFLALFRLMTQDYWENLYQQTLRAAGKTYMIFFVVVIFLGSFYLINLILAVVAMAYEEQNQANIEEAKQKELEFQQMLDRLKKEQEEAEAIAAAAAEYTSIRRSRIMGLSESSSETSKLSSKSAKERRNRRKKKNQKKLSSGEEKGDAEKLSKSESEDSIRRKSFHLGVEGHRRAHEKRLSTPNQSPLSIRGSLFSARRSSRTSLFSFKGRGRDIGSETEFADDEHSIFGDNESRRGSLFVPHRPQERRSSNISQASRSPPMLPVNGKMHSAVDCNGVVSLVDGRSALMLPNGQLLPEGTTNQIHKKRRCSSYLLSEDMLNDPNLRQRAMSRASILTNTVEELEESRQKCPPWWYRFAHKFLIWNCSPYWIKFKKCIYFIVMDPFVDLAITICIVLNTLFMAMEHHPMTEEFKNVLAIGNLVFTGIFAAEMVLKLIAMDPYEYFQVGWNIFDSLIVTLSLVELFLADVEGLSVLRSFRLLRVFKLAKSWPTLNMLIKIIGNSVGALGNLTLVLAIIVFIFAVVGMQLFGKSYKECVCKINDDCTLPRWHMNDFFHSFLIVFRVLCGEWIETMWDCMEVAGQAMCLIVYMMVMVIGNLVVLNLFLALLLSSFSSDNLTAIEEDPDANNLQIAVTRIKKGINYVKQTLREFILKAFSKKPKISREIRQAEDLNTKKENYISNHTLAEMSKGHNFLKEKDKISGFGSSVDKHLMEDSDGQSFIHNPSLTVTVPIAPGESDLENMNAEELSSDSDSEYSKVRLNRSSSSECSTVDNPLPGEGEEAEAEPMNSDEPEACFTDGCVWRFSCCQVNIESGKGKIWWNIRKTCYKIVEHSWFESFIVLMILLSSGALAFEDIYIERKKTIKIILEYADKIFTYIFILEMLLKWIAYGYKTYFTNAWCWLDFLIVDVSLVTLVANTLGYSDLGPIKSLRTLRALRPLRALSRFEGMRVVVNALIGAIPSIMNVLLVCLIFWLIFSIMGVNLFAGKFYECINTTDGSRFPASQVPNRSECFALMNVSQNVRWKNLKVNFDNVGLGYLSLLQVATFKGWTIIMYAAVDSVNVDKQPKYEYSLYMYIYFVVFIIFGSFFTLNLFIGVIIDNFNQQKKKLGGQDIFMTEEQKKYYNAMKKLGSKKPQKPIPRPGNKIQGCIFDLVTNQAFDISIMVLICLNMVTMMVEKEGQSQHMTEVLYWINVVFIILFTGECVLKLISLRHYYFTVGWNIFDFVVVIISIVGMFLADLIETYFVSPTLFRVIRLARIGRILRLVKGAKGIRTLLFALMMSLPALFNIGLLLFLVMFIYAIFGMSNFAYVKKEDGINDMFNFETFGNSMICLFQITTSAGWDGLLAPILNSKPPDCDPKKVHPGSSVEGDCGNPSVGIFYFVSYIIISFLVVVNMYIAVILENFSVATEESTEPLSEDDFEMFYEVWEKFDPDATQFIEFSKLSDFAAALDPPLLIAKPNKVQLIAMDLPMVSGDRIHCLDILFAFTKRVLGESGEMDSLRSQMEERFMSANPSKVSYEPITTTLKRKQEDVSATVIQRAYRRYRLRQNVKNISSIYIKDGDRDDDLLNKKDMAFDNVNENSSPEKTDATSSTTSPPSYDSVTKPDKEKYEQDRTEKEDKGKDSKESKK

What was measured:
human Nav1.7 = human Nav1.7 (Homo sapiens (Human), UniProt Q15858); assay: FLIPR or FLIPR TETRA sodium dye assay with KCl and test article pre-incubation; assay type: cell-based; conditions: recombinant human Nav1.7 in HEK293 cells; sodium dye assay with KCl; read-out: FLIPR Nav1.7 IC50 (μM) ± SEM
hNav1.7 = hNav1.7 (Homo sapiens (Human), UniProt Q15858); assay: Electrophysiology (EP) assay, whole-cell patch clamp; assay type: cell-based; conditions: hNav1.7 expressing HEK-293 cells, read-out: EP Nav1.7 Ki

Compound `OC[C@H](O)c1nn(-c2ccc(Oc3ccc(C(F)(F)F)cc3)cc2)c2cnccc12` [Compound 166, (R)-1-(1-(4-(4-(trifluoromethyl)phenoxy)phenyl)-1H-pyrazolo[3,4-c]pyridine-3-yl)ethane-1,2-diol] has an IC50 (human Nav1.7) of 0.486 ± 0.024 µM and a Ki (hNav1.7) of 640 nM.
